Reference: patent publication US20240325363A1, “COMPOSITION FOR TREATMENT OF ANTICANCER AGENT-RESISTANT CANCER” (ONCOCROSS CO.,LTD., priority 2021, published 2024)

System: HCT116 cells xenograft
Test: HCT116 xenograft model in nude mice, tumor size
Format: in vivo, Balb/c nude mice
Settings: GW8510 10 mg/kg i.p. three times a week, cetuximab 1 mg/mouse i.p. once a week
Source text: Experimental animals used were 36 6-week-old Balb/c nude mice. The experimental diet and drinking water were taken freely, and all experimental diets were stored in a refrigerator during a breeding period. The mice were pre-bred with regular feed to be adapted to a breeding environment for 7 days before the start of the experiment and then divided into a total of 4 groups. The 4 groups were divided into a control group (n=9), a gw8510 experimental group (n=9), a cetuximab experimental group (n=9), and a gw8510 and cetuximab combined experimental group (n=9). In all mice, HCT116 cells were injected with 1×10^6 S.C. at 7 weeks of age to prepare a xenograft model. When the tumor size reached 150 mm^3 in the prepared tumor transplant model, the mice were divided into GW8510 alone, cetuximab alone, and GW8510 and cetuximab combined treatment groups, respectively, and GW8510 was administered intraperitoneally at a concentration of 10 mg/kg three times a week, and cetuximab was administered intraperitoneally at a concentration of 1 mg/mouse once a week for a total of three times. The tumor size was measured using Equation of (long axis×short axis×short axis)/2 and measured three times a week at the same time.

In the case of cetuximab [reference compound], the tumor size is reported as “not reduced”.
